Source: ChEMBL document CHEMBL1151084, “Synthesis and biological properties of quaternized N-methylation analogs of D-Arg-2-dermorphin tetrapeptide” (Bioorg Med Chem Lett, 1994)

Protein sequences, listed by entry. Tags and fused reporters are not part of them.
UniProt P41143, whole entry, looked up: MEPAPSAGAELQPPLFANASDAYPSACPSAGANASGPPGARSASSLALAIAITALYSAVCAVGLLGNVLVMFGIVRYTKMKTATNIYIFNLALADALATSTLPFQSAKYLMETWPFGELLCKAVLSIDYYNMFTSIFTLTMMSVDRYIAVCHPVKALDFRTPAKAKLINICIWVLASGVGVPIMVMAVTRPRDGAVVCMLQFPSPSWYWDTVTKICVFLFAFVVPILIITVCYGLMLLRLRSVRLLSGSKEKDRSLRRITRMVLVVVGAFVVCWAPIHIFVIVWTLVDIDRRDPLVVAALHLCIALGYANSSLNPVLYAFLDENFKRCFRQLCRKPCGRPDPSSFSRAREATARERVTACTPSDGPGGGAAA
UniProt P35372, whole entry, looked up: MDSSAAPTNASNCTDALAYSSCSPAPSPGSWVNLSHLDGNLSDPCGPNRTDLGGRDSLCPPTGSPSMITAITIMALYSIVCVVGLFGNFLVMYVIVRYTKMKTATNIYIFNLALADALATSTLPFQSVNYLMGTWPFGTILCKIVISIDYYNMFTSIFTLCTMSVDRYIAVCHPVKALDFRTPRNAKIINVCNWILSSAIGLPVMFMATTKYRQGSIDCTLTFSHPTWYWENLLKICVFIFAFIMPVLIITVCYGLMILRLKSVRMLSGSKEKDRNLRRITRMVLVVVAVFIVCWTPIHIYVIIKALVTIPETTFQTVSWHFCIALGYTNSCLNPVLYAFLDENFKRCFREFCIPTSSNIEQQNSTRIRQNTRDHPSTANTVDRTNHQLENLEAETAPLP

Target: Opioid receptors; mu & delta (Homo sapiens) (UniProt P41143+P35372)
Assay: Ratio of Ki of mu-opioid receptor to that of Ki of delta-opioid receptor
Assay type: protein assay

Structure (SMILES)	Ratio
C[N+](C)(C)CCC[C@H](NC(=O)[C@H](Cc1ccccc1)NC(=O)[C@@H](CCCN=C(N)N)NC(=O)[C@@H](N)Cc1ccc(O)cc1)C(N)=O	193
C[N+](C)(C)CC[C@H](NC(=O)[C@H](Cc1ccccc1)NC(=O)[C@H](CCCN=C(N)N)NC(=O)[C@@H](N)Cc1ccc(O)cc1)C(N)=O	779
